From ChEMBL document CHEMBL6074665, “Discovery of Anthranilic Acid Derivatives as Antagonists of the Pro-Inflammatory Orphan G Protein-Coupled Receptor GPR17” (J Med Chem, 2024)

Protein sequences, listed by entry. Tags and fused reporters are not part of them.
UniProt Q13304, whole entry: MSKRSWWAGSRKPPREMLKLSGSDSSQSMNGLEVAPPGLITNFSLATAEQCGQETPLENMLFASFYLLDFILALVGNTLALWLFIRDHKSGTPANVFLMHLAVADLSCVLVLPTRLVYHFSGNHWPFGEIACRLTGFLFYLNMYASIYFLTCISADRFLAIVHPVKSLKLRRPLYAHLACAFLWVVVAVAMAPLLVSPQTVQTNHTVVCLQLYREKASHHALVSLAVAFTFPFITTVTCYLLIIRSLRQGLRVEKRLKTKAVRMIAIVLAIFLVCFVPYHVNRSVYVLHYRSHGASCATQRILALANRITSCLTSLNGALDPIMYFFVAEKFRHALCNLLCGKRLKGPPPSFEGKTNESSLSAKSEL

Biological target: Uracil nucleotide/cysteinyl leukotriene receptor (Homo sapiens, UniProt Q13304)
Assay: Antagonist activity at recombinant GPR17 (unknown origin) assessed as inhibition of calcium mobilization at 5 uM by fluorescence-based calcium mobilization assay relative to control
Format: functional
Conditions: filed as antagonist

inhibition: 65%
Compound: CCc1ccc(-n2nnnc2/C=C/Nc2ccccc2C(=O)O)cc1
